Test [1] has as its target T1, Mu-type opioid receptor (Homo sapiens, UniProt P35372). The test is described as follows: Radioligand Dose-Displacement Binding Assay: Radioligand dose-displacement binding assays for t-opioid receptors used 0.3 nM [3H]-diprenorphine (Perkin Elmer, Shelton, Conn.), with […] membrane protein/well in a final volume of 500 ul binding buffer (10 mM MgCl2, 1 mM EDTA, 5% DMSO, 50 mM HEPES, pH 7.4). Reactions were carried out in the absence or presence of increasing concentrations of unlabel.

Protein sequences, listed by entry. Tags and fused reporters are not part of them.
UniProt P35372, whole entry: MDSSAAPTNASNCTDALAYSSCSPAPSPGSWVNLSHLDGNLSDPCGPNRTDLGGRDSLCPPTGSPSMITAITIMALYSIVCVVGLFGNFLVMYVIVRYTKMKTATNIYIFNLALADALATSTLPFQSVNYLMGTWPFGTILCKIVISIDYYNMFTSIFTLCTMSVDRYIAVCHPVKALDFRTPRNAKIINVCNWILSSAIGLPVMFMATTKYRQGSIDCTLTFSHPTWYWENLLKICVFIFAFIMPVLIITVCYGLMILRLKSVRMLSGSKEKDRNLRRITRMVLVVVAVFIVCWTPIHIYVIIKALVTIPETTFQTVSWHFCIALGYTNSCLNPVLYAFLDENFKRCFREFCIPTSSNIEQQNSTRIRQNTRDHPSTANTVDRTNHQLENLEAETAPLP
UniProt P41145, whole entry: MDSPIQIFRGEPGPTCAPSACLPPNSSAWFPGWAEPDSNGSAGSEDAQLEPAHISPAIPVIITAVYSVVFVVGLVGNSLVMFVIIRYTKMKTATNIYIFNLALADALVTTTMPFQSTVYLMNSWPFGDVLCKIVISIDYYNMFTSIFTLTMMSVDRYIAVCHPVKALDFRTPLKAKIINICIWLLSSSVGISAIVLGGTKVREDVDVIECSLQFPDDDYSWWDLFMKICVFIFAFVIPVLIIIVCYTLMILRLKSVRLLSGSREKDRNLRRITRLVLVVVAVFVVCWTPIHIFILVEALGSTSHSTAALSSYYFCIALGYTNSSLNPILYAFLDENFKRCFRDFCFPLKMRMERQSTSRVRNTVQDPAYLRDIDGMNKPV
UniProt P41143, whole entry: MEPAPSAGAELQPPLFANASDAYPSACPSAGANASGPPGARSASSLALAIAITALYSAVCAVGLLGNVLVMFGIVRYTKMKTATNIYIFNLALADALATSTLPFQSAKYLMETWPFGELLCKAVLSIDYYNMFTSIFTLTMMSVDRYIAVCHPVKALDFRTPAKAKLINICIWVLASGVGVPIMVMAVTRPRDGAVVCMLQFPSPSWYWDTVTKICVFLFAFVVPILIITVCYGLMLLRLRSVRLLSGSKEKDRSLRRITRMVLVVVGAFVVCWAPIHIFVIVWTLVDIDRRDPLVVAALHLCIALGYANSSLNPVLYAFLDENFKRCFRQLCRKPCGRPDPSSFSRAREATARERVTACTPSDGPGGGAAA

Test [2] has as its target T2, Kappa-type opioid receptor (Homo sapiens, UniProt P41145). In words: Radioligand Dose-Displacement Binding Assay: Radioligand dose displacement assays used 0.4 nM [3H]-U69,593 (GE Healthcare, Piscataway, N.J.; 40 Ci/mmole) with 15 μg membrane protein (recombinant κ opioid receptor expressed in HEK 293 cells; in-house prep) in a final volume of 200 μl binding buffer (5% DMSO, 50 mM Trizma base, pH 7.4). Non-specific binding was determined in the presence of 10 μM un. The following applies: sf9.

Test [3] has as its target T3, Delta-type opioid receptor (Homo sapiens, UniProt P41143). In words: Functional Assay: Functional [35S]GTPgammaS binding assays were conducted as follows. Delta opioid receptor membrane solution was prepared by sequentially adding final concentrations of 0.026 ug/ul delta membrane protein (Perkin Elmer, Shelton, Conn.), 10 ug/mL saponin, 3 uM GDP and 0.20 nM [35S]GTPgammaS to binding buffer (100 mM NaCl, 10 mM MgCl2, 20 mM HEPES, pH 7.4) on ice. The prepared membra.

Test [4] addresses T3, Delta-type opioid receptor. The test is described as follows: Radioligand Dose-Displacement Binding Assay: Delta-opioid Receptor Binding Assay Procedures were conducted as follows. Radioligand dose-displacement assays used 0.3 nM [3H]-Naltrindole (Perkin Elmer, Shelton, Conn.; 33.0 Ci/mmole) with 5 ug membrane protein (Perkin Elmer, Shelton, Conn.) in a final volume of 500 ul binding buffer (5 mM MgCl2, 5% DMSO, 50 mM Trizma base, pH 7.4). Non-specific bindi.

The target in test [5] is T1, Mu-type opioid receptor. In words: Functional Assay: [35S]GTPgammaS functional assays were conducted using freshly thawed u-receptor membranes (Perkin Elmer, Shelton, Conn.). Assay reactions were prepared by sequentially adding the following reagents to binding buffer (100 mM NaCl, 10 mM MgCl2, 20 mM HEPES, pH 7.4) on ice (final concentrations indicated): membrane protein (0.026 mg/mL), saponin (10 mg/mL), GDP (3 mM) and [35S]GTPga.

For test [6], the target named is T2, Kappa-type opioid receptor. The test is described as follows: Functional Assay: Functional [35S]GTPgammaS binding assays were conducted as follows. kippa opioid receptor membrane solution was prepared by sequentially adding final concentrations of 0.026 ug/ul kippa membrane protein (in-house), 10 ug/mL saponin, 3 uM GDP and 0.20 nM [35S]GTPgammaS to binding buffer (100 mM NaCl, 10 mM MgCl2, 20 mM HEPES, pH 7.4) on ice. The prepared membrane solution (190 ul/. (In general: Binding of GTPγS marks nucleotide exchange on a G protein.)

For test [7], the target named is T2, Kappa-type opioid receptor. The following applies: sf9.

Usually Ki stands for the equilibrium dissociation constant of an inhibitor or competing ligand from its target. In the case of `COC(=O)COc1ccc(COC[C@H]2C[C@@]34CC[C@]2(OC)[C@@H]2Oc5c(OC)ccc6c5[C@@]23CCN(CC2CC2)[C@@H]4C6)cc1`, the Ki on Mu-type opioid receptor [1] was found to be 19 nM; in test [2] it was 12.1 nM.
As a reminder, the EC50 is the midpoint of the concentration-response curve. As to `COc1ccc2c3c1O[C@H]1[C@@]4(OC)CC[C@@]5(C[C@@H]4COc4ccc(-n6ccnc6)cc4)[C@@H](C2)N(CC2CC2)CC[C@]315`, the Ki on Mu-type opioid receptor [1] came to 15.8 nM; in test [4], 211 nM; in test [2] it was 31.2 nM. Besides, the EC50 in test [3] was determined as 5620 nM.
Consider `COc1ccc2c3c1O[C@H]1[C@@]4(OC)CC[C@@]5(C[C@@H]4CNCc4ccccc4)[C@@H](C2)N(CC2CC2)CC[C@]315`, for which the EC50 is 526 nM in test [3], 50.4 nM at Mu-type opioid receptor [5] and 8.42 nM in test [6]. In addition, the figures for the Ki in test [4] and in test [2] were 494 nM and 0.04 nM, respectively.
Turning to `COc1ccc2c3c1O[C@H]1[C@@]4(OC)CC[C@@]5(C[C@@H]4CSc4nncs4)[C@@H](C2)N(C)CC[C@]315`, the Ki on Mu-type opioid receptor [1] came to 3390 nM; in test [2] it was 462 nM.
As for `CO[C@]12CC[C@@]3(C[C@@H]1COCc1ccccc1)[C@H]1Cc4ccc(N)c5c4[C@@]3(CCN1C)[C@H]2O5`, the results for the Ki in test [4] and in test [7] were 411 nM and 0.28 nM, respectively. In test [6], the EC50 worked out at 40.4 nM.

Values taken from ChEMBL document CHEMBL3886452, “Buprenorphine analogs” (2015).
